From PubChem BioAssay AID1259372 (The Scripps Research Institute Molecular Screening Center, 2018)
The list shows a part of the results, in another mix than the full data. Activity calls are given as the source filed them.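 How the source made its calls: active means inhibition above a cutoff derived from the DMSO control wells (cut at about 28% in these data); inactive means the rest.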

Chains of the proteins cited; added tags and fusions are not shown. Lines headed by an entry give the natural chain unless they say otherwise; changes in a name come on top.
UniProt O75030: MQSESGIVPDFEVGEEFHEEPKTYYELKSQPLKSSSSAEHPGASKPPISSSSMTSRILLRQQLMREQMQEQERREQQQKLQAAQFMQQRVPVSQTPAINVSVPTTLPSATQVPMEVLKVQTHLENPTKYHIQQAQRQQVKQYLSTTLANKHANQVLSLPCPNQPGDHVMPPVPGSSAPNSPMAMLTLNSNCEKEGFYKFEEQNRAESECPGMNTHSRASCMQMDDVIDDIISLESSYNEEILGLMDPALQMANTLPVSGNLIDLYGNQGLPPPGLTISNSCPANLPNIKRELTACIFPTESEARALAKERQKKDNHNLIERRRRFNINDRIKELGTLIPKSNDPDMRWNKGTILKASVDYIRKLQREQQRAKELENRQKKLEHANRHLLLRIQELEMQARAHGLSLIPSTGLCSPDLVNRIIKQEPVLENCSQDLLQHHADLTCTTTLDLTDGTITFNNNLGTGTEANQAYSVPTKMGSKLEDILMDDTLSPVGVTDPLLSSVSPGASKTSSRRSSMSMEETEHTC

biological target: Microphthalmia-associated transcription factor (Homo sapiens) (UniProt O75030); experiment: blockers of human MITF dimerization – biochemical, AlphaScreen, triplicate, confirmation (AID 1259372); conditions: AlphaScreen MITF homodimerization, biotin/His-MITF beads; at 2.6 µM; stronger effect = higher value

Row | SMILES | inhibition
1 | Cc1ccc([N+](=O)[O-])c2no[n+]([O-])c12 | active: 75.2%
2 | CC(C)OP(=O)(OC(C)C)C(=O)c1ccco1 | active: 70.8%
3 | CCOP(=O)(CN)OCC | inactive: 6.96%
